Results: PubChem BioAssay AID651821 (The Scripps Research Institute Molecular Screening Center, 2012)
Only a part is listed here, and it is no random draw. Calls of active or inactive are those of the source.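 The calls were made as follows: active = inhibition above the plate cutoff, the mean of all test compounds on that plate plus 3 SD (cut at about 35% in these data); inactive = the rest.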

Assay: small molecules binding CAG repeat RNA – biochemical, fluorescence, primary screen (AID 651821);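 also: 0% = DMSO alone and 100% = 100 µM mitoxantrone as full dye displacement; higher means more dye released from RNA so lower well fluorescence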
Conditions: r(CAG) RNA repeat, TO-PRO-1 dye displacement fluorescence; at 3 µM; active compounds read high

Q: With `CCC(=O)N(c1ccccc1)C1(COC)CCN(CCn2nnn(CC)c2=O)CC1` as the compound, how does the inhibition read?
A: inactive: -1.72%

Q: With `CCC(=O)N(c1ccccc1)C1(COC)CCN(CCc2cccs2)CC1` as the compound, how does the inhibition read?
A: inactive: -0.56%
